## Measured affinities in a library of Ab-14 light chain variants

Antigen: PDVDLGDISGINAS, a 14-residue peptide of the SARS-CoV-2 spike HR2 region.

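The parent was found by panning a naive human phage display library on the peptide. This is the validation round: designs drawn from the data on random variants, tested in the same kind of assay. Several design methods are mixed in this list. The assay is AlphaSeq: two haploid yeast populations carry antibody and antigen on their surface. Binding brings cells together so that they mate, and sequencing counts the barcode pairs among the diploids. The ratio of observed to expected reads was calibrated, replicate by replicate, on BCL2-family standards whose Kd was known from biolayer interferometry. The assay was run in six technical replicates.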

The variants keep the heavy chain, the linker and the frameworks of Ab-14 (scFv order VH, three GGGGS repeats, VL).
VH: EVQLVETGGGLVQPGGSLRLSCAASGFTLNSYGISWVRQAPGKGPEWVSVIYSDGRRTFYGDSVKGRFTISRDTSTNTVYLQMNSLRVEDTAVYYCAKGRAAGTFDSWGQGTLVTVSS
VL: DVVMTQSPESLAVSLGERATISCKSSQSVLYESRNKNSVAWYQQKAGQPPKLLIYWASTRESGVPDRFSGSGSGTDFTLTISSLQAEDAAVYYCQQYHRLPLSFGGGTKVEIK

Variants are written as CDR1, CDR2 and CDR3 of the light chain (limits as in the source). Parent: KSSQSVLYESRNKNSVA, WASTRES, QQYHRLPLS. This list holds designs with more than six substitutions. Affinities are written as log10 Kd with Kd in nM; a lower number is a better binder. "nd" marks a missing value. The strain was present, yet no cells mated with the target were sequenced in that replicate, which points to weak or no binding. The authors' rule: three or more of the six replicates give a measured affinity, fewer mean a poor binder. The parent sequence was in this pool as ten entries: three were never detected, three once, and four in most replicates, with averages from 0.34 to 2.37. Values of this round are not directly comparable with the first-round values of the same sequences. Empty control strains, which show no peptide, gave a signal in 4% of pairings with all light chain designs; the median was 2.64 and 95% of these signals were weaker than 1.59. No background was subtracted.

With MLGSQPTSFRDNKHAIA | DDEARTS | QQYDRLPLS the result was 0.91, 2.40, nd, 1.54, 1.14, 1.30. Variant MVTQMAMTGMKNKRSVA | NASTREE | QQYHRLPLI showed 0.45, 0.33, 0.20, 0.45, 0.60, 0.43. For QLGAVMDMTSKNKNSVA | EQSTREN | QQYHRLPLS, the assay gave 0.64, 0.62, 0.46, 0.54, 0.61, 0.80. For TISQSWYIESRNKNNVA | EMSTREN | QDYDRLPLS, the assay gave 0.51, 0.33, -0.38, -0.13, 0.12, 0.31. Variant VLPFPTMRFDVQGNSIA | NAVMRME | QQYERLPLT gave 1.04, 0.49, 0.78, 0.77, 1.36, 0.73. Variant NISESMYFQTRMKNNIA | EMSTRER | QHYHRLPLS gave 1.33, 1.92, 1.75, 1.54, 1.82, 1.28. With HLSDTVMQGSYYGNSVA | QESTRAD | QQYHRLPLS the result was 0.40, 0.24, 0.13, -0.05, 0.01, 0.35. Variant KLSQSFLYEDRNWNNVA | AASKRES | QQYHRLPLS showed -0.29, -0.45, -0.37, -0.58, -0.43, -0.25.

Variant QFHSHMAGDQRIDHSIA | NATWAVP | QQYFRLPLS gave 0.70, 0.75, 0.83, 0.47, 0.64, 0.93. For MISMMHASQYNEESSIA | NAEALNS | QQYHELPLS, the assay gave 1.15, 0.93, 0.99, 2.78, 1.36, 3.57. Variant TLMHHQDRYDVWKKSIA | EASIRAS | QQYQRLPLA showed 0.49, 0.49, 0.29, 0.70, 0.14, 0.56. With KLPMATMQESVSKNSVA | ELSTRGS | QQYHRLPLS the result was 0.25, 0.15, 0.47, 0.13, 0.23, 0.13. For MVSQLMLWGLHAKNSIA | EAQTRLN | QQYDRLPLD, the assay gave nd, nd, nd, nd, nd, nd. For KFSYGNLYEDRNQNSVA | NASQREQ | QQYHRLPLS, the assay gave 0.27, 0.16, 0.14, -0.06, 0.20, 0.29. Variant KLSFSVLYGKRNKNSVA | QASQRCS | QQYHRLPLS showed 0.11, -0.04, -0.13, -0.34, -0.27, -0.04. Variant KLLQNVMTEGRNRNNVA | HMTMRED | QQYWRLPLS gave 0.57, 0.40, 0.21, 0.22, 0.45, 0.30.

Variant KISQAYLYEDRNKNSVA | NANQRES | QQYHRLPLS gave -0.12, -0.07, -0.32, -0.40, -0.19, -0.19. For KLDQDDLYENRNCNSVA | QASTRES | QQYHRLPLS, the assay gave 0.63, 0.35, 0.21, 0.70, 0.41, 0.61. Variant QFESHEEEGYQYSNNIA | NGEQRFS | QQYVKLPLV gave 1.19, 1.12, 0.64, 0.96, 0.44, 1.29. For KLVGVDDNDNKPMSAIA | DVNTLDN | QQYGRLPLD, the assay gave nd, 1.66, 1.02, 1.36, nd, 2.24. Variant TISQMTSLFSQSINNVA | EVSMREP | QQYDRLPLS showed 2.09, 1.53, 1.61, nd, 0.61, nd. For KIGMTLNQLMHQKNNVA | DLVTRED | QQYHRLPLS, the assay gave 0.63, 0.66, 1.02, 0.93, 0.94, 0.80. For SMSWAHFNGDNWMNSIA | DATHLAY | QQYSRLPIT, the assay gave 0.97, 0.89, 1.28, 0.65, 0.80, 1.05. For HLGLATMLEEYVRNSVA | NNSTRES | QQYDRLPLS, the assay gave nd, 2.01, 1.62, nd, 3.42, nd.

For VLSASELYEDRPKNSVA | NASTRES | QQYHRLPLS, the assay gave 0.03, -0.19, -0.24, -0.36, 0.05, -0.13. Variant HLSDRLSYGKDLQNAVA | GVQTRMT | QQYARLPLL showed nd, 0.65, 0.38, nd, nd, nd. Variant IVSQLMLWGHLAKNSIA | EAVTRLN | QQYDRLPLF showed 1.27, 2.55, 2.24, nd, 1.77, 1.69. Variant ALSQSMDMTSRNKNSVA | DLSTRGN | QQYHRLPLS gave 0.18, 0.29, 0.04, 0.09, 0.09, 0.40. Variant ILYDSVGTLSHNKNSVA | DNSTRES | QQYDRLPLS showed 3.21, 1.79, 2.59, 3.42, 1.49, 4.40. Variant KVYCGVDYEDRNKNQVA | HASQRES | QQYHRLPLS showed 0.26, -0.12, -0.13, -0.05, -0.23, 0.13. Variant IVSQLMLWGHSAKNSIA | EAVTRYN | QQYDRLPLF gave 0.12, 0.65, 0.23, 0.20, 0.29, 0.71. Variant MISNVMNTLSRYGNNVA | DLTEREK | QQYFRLPLS gave 0.87, 1.15, 0.64, 0.80, 0.55, 0.80.

For QISGITGHQSMSKNNVA | EMVTRVN | QQYNRLPLS, the assay gave 0.00, -0.13, -0.12, -0.01, -0.15, -0.21. For KLSQSVLYQSQLKNSVA | NAQTRMS | QQYHRLPLS, the assay gave -0.07, -0.22, -0.34, -0.32, -0.37, -0.24. Variant IISDSVLTLSRNKNSVA | DNSTRES | QQYDRLPLS gave 1.53, nd, nd, 0.85, 1.02, nd. For MLSMMEQHLGDMMHNVA | DANVAKM | QDYFRLPLM, the assay gave 2.56, 1.26, 0.75, 3.77, 1.92, 2.43. With KLSQSTSYESLNRNSVA | ELTTRGG | QQYNRLPLS the result was 0.81, 2.07, 0.73, 1.79, 1.49, 1.32. Variant KVPQSNLYESRNANNVA | SASQRLS | QQYHRLPLS showed 1.07, 0.43, 0.53, 0.13, 0.14, 0.63. For SISMLLNFESKIGNNVA | QMETRVN | QQYDRLPLS, the assay gave 0.92, 0.94, 0.86, 0.75, 0.84, 0.89. With KISMLINMTFEMSNNVA | EMVTRMK | QQYNRLPLS the result was 1.37, 0.92, nd, 1.27, 1.71, 2.16.

Variant TIGGTLMYGSRNRSNVA | EVSERLN | QQYDRLPLF gave 1.50, 1.04, 0.43, 0.64, 0.34, 0.92. Variant KFSQLVGMESRNMNSVA | NASTREE | QQYHRLPLS gave nd, 0.84, nd, 2.71, nd, 1.80. Variant KLSQSDDYEMRNKNSVA | EAQTREQ | QQYHRLPLS gave -0.07, -0.01, -0.01, -0.12, -0.10, 0.10.

The opening 6 entries, copied out:

{"CDR-L1": "MLGSQPTSFRDNKHAIA", "CDR-L2": "DDEARTS", "CDR-L3": "QQYDRLPLS", "log10 Kd, replicates": "0.91, 2.40, nd, 1.54, 1.14, 1.30"}
{"CDR-L1": "MVTQMAMTGMKNKRSVA", "CDR-L2": "NASTREE", "CDR-L3": "QQYHRLPLI", "log10 Kd, replicates": "0.45, 0.33, 0.20, 0.45, 0.60, 0.43"}
{"CDR-L1": "QLGAVMDMTSKNKNSVA", "CDR-L2": "EQSTREN", "CDR-L3": "QQYHRLPLS", "log10 Kd, replicates": "0.64, 0.62, 0.46, 0.54, 0.61, 0.80"}
{"CDR-L1": "TISQSWYIESRNKNNVA", "CDR-L2": "EMSTREN", "CDR-L3": "QDYDRLPLS", "log10 Kd, replicates": "0.51, 0.33, -0.38, -0.13, 0.12, 0.31"}
{"CDR-L1": "VLPFPTMRFDVQGNSIA", "CDR-L2": "NAVMRME", "CDR-L3": "QQYERLPLT", "log10 Kd, replicates": "1.04, 0.49, 0.78, 0.77, 1.36, 0.73"}
{"CDR-L1": "NISESMYFQTRMKNNIA", "CDR-L2": "EMSTRER", "CDR-L3": "QHYHRLPLS", "log10 Kd, replicates": "1.33, 1.92, 1.75, 1.54, 1.82, 1.28"}

Values reported by Li et al. 2023, doi:10.1038/s41467-023-39022-2 (FLAb copy).